Patent publication US20230363382A1, “COMBINATIONS OF TRIAZINONE HERBICIDES WITH SAFENERS” (priority 2020, published 2023)
Where two headings read alike, the source gives them in different places.

Test system: Soybean crop
Settings: Metribuzin 840 g ai/ha alone, soil spray

Question: With CSc1nnc(C(C)(C)C)c(=O)n1N [Metribuzin, 4-amino-6-tert-butyl-4,5-dihydro-3-methylthio-1,2,4-triazin-5-one] as the compound, how does the “% Phytotoxicity 14 DAA” value (Table 1 treatment set) read?
Answer: 51.3%

Question: What about the “% Phytotoxicity 14 DAA” value (Table 2 treatment set) of the same compound?
Answer: 48.8%

Question: And the “% Phytotoxicity 28 DAA” value (Table 1 treatment set)?
Answer: 76.3%

Question: What about the “% Phytotoxicity 28 DAA” value (Table 2 treatment set) of the same compound?
Answer: 68.8%

Question: What about the “% Phytotoxicity 35 DAA” value (35 DAA, Table 2 treatment set) of the same compound?
Answer: 72.5%
